The numbers were not newly measured in US20120037840A1, “USE OF MAGNETIC NANOPARTICLES TO REMOVE ENVIRONMENTAL CONTAMINANTS” (priority 2008, published 2012), which cites them from elsewhere.

For the series the following is noted: octanol-water coefficient; cited from earlier work.

For the compound `c1ccc2ccccc2c1` [Naphthalene, naphthalene], the Kow was 3235.
